Values of other authors as cited in patent US20240173460A1, “STORAGE SOLUTIONS FOR MAINTAINING OF AXONAL VIABILITY” (Board of Regents, The University of Texas System, priority 2022, published 2024).

In the case of sodium acetate, anhydrous, the solubility in water is given as “soluble in water”.
